{"sequences": {"note": "By UniProt entry, the sequences of proteins in these tests, tags left out. Where a name states a change or a piece, a line headed by the entry shows the natural chain unless it says otherwise.", "UniProt P80147": "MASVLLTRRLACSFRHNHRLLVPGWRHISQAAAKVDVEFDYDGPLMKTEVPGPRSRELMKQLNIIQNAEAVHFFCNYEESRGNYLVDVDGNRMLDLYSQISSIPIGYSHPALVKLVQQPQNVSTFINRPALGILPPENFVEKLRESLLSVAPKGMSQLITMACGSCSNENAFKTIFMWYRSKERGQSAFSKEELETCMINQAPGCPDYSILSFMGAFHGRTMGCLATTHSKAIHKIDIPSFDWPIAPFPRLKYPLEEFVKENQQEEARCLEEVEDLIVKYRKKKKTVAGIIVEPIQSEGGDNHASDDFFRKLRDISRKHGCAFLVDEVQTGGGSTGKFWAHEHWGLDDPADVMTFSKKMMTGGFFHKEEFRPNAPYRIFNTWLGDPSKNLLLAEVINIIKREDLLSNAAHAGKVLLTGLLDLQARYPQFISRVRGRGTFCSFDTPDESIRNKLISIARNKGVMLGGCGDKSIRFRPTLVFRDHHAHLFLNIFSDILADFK"}, "source": "ChEMBL document CHEMBL1133708", "about": "“A new class of conformationally rigid analogues of 4-amino-5-halopentanoic acids, potent inactivators of gamma-aminobutyric acid aminotransferase” (J Med Chem, 2000)", "molecular_target": "4-aminobutyrate aminotransferase, mitochondrial (Sus scrofa, UniProt P80147)", "experiment": "Compound was evaluated for the competitive inhibition of Gamma-amino-N-butyrate transaminase", "in_short": "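Pig brain GABA aminotransferase (0.15 mg/mL stock) assayed at 25 °C in 120 mM potassium pyrophosphate, pH 8.5, with excess succinic semialdehyde dehydrogenase, 5.3 mM α-ketoglutarate and 1 mM NADP+. GABA ranged 2.7–6.0 mM, with two inhibitor concentrations per GABA level. NADPH was read at 340 nm and % inhibition taken versus an untreated control. Ki was fitted to %I = 100[I]/{[I] + Ki(1 + [GABA]/Km)}.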", "data": [{"compound": "N[C@H]1C[C@@H](C(=O)O)CC1(F)F", "values": [{"measurement": "Ki", "value": 190, "unit": "µM"}]}]}
